Data: publication PMC9785492 (Viruses, 2022)

Amino acid sequences for entries named in this document (tags omitted). Residues count along the entry.
UniProt P03470, whole entry, looked up: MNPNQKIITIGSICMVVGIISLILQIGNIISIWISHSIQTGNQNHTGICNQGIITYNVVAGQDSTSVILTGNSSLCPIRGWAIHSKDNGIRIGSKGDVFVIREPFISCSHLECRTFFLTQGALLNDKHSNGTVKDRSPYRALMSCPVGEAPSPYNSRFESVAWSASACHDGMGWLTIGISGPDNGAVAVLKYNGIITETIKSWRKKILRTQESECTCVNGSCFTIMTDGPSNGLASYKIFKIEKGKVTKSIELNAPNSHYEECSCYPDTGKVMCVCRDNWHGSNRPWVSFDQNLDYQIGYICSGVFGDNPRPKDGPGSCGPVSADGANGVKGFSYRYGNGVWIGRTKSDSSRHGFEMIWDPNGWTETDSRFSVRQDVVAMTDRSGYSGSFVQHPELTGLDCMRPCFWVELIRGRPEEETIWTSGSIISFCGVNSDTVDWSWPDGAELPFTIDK
UniProt P03454, 18-342 limits assumed: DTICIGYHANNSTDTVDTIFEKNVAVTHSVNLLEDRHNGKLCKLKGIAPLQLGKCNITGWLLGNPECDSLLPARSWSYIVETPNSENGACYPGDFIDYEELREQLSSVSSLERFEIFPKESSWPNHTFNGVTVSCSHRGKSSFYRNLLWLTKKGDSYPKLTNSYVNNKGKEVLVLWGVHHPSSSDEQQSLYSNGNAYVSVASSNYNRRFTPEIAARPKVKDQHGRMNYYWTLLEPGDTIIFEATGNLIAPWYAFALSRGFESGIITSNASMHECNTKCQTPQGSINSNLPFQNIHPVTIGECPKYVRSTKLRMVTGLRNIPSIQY

Experiments:
NA enzyme activity = NA enzyme activity (Influenza A virus, UniProt P03470)
[1] = biological target: viral surface glycoprotein HA (HA1 subunit) (Influenza A virus, UniProt P03454)
A/WSN/33 = type: cell-based

SMILES	NA enzyme activity (NA enzyme activity)	hemagglutination of red blood cells [1]	IAV replication (intracellular IAV RNA) (A/WSN/33)
COC(=O)C1=C(C)NC(C)=C(C(=O)OCC(C)C)C1c1ccccc1[N+](=O)[O-] (stereo not drawn) [Nisoldipine]	No significant inhibition effect	No significant inhibition effect	
CC(=O)OCOC(=O)CN(CC(=O)OCOC(C)=O)c1ccccc1OCCOc1ccccc1N(CC(=O)OCOC(C)=O)CC(=O)OCOC(C)=O [BAPTA-AM, 1,2-bis (o-aminophenoxy) ethane-N, N, N′, N′-tetraacetic acid acetoxymethyl ester]			dramatically impaired
